# According to patent US20250339425A1 (Northeastern University, priority 2024, published 2025):
# System: CFA-induced inflammatory pain in mice
# Conditions: mouse, in vivo
compound,measurement,value
"CC[N+]1(C)CCN(c2ccc(NC(=O)c3cccc(C)n3)cc2)CC1 [Compound II, 1-Ethyl-1-methyl-4-(4-(6-methylpicolinamido)phenyl)piperazin-1-ium iodide]",antinociceptive effect in WT vs α7 nAChR KO mice,essentially the same in both WT and α7 nAChR KO animals
same,mechanical thresholds (von Frey) in CFA-treated mice,elevated
same,von Frey responses in sham-treated mice,did not alter von Frey responses
